# In patent publication US10548982B2, “Reversible covalent linkage of functional molecules” (priority 2009, dated 2020):
# Chains of the proteins cited; added tags and fusions are not shown. Lines headed by an entry give the natural chain unless they say otherwise; changes in a name come on top.
# UniProt P30874: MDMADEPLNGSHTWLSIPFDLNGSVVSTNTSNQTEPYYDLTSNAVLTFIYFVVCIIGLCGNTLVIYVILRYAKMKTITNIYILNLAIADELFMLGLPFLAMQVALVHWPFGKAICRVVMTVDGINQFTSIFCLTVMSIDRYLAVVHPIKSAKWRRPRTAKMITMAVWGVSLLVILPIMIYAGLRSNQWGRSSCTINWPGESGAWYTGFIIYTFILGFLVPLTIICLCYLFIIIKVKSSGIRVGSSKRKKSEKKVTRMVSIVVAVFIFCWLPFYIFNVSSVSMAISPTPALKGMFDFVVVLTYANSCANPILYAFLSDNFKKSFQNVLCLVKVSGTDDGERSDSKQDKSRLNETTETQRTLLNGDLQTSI
# Target: T1, human somatostatin receptor 2 (Homo sapiens, UniProt P30874)
# T1 construct: host or cells: HEK293 cells stably expressing Kir3.1 and Kir3.2A
# Assay: whole cell patch-clamp current recordings of GIRK currents
# Type: cell-based
# Conditions: HEK 293 cells expressing HKIR3.1/3.2 channel and human somatostatin receptor 2; 20 μM; clamped at −60 mV
# Procedure: HEK 293 cells expressing HKIR3.1/3.2 channel and human somatostatin receptor 2 were treated with these compounds, and whole cell patch-clamp current recordings taken. […] Cell Culture
# Cell-culture methods and the generation of stable cell lines were carried out as described in J Biol Chem 275, 921-9 (2000). HEK293 cells (human embryonic kidney cell line) stably expressing Kir3.1 and Kir3.2A channels were maintained in minimum essential medium supplemented with 10% foetal calf serum and 727 μg of G418 (Invitrogen), at 37° C. in humidified atmosphere (95% O2, 5% CO2). Cells were transiently transfected with SSTR2 DNA (Missouri S&T cDNA Resource Center) along with pEGFP-N1 (Clontech) for visualization of transfected cells using epifluorescence. Transfections were performed with 5 μl of Fugene HD (Roche) and 800 ng SSTR2-DNA and 40 ng EGFP-DNA per 97 μl of cell culture medium (containing no serum or antibiotics).
# Bridged somatostatins were prepared as described above. Somatostatin and its analogues were dialysed for 24 h at 4° C. in buffer (50 mM sodium phosphate, pH 6.2) to remove the organic solvents. After dialysis the concentration was determined and the peptides stored at 4° C. A final concentration of 20 μM somatostatin and analogues were used (dilution was done in the extracellular patch-clamp buffer).
# Whole cell patch-clamp current recordings were performed with an Axopatch 200B amplifier (Axon Instruments) using fire-polished pipettes with a resistance of 3-4 MS pulled from filamented borosilicated glass capillaries (Harvard Apparatus, 1.5 mm OD×1.17 mm ID). Data was acquired and analysed via a Digidata 1322A interface (Axon Instruments) and pCLAMP software (version 8.1, Axon Instruments). A fast perfusion system was used to apply somatostatin and analogues (Rapid Solution Changer, RSC-160, Bio-Logic France). Cells were clamped at −60 mV. […] For each cell it was assessed if flow artifacts resulting from the pressure of drug application were present. […]
row,Substance,activation of GIRK currents (current amplitude)
1,PEGylated-dibromomaleimide bridged analogue: somatostatin bridged with N-PEG dibromomaleimide derivative,robust activation of GIRK currents in an amplitude comparable to somatostatin itself
2,"dibromomaleimide bridged analogue: somatostatin whose reduced disulfide cysteines are bridged by reaction with 2,3-dibromomaleimide",robust activation of GIRK currents in an amplitude comparable to somatostatin itself
3,fluorescein dibromomaleimide-bridged analogue: somatostatin bridged with N-fluorescein dibromomaleimide,robust activation of GIRK currents in an amplitude comparable to somatostatin itself
